Assay results reported in patent WO2022068891A1 (dated 2022).

Protein sequences, listed by entry. Tags and fused reporters are not part of them. Residues count along the entry.
UniProt Q15116, 25-167 limits assumed: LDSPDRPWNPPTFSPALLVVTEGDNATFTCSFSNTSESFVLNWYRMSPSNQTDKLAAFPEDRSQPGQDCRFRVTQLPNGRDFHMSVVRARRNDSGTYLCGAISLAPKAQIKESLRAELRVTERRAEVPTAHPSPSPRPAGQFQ

Legend:
[1] = target: PD-1 Protein, Human, Recombinant (His Tag) (Beijing Yiqiao Shenzhou / Sino Biological) (human) (UniProt Q15116); assay: binding ELISA: human PD-1 His tag protein coated at 0.5 ug/ml, antibody in two-fold dilutions from 10 ug/ml
[2] = target: Biotinylated PD-1-huIgG1 Fc (Kactus Biosystems) (UniProt Q15116); assay: neutralisation ELISA: PD-L1-huIgG1 Fc coated, antibody titrated against biotinylated PD-1-huIgG1 Fc

EC50 [1]: 0.0111 µg/mL | IC50 [2]: 6.66 µg/mL
Substance: pembrolizumab huIgG1 antibody
